Experimental data from patent US8394391B2, “Drug delivery vehicle that mimics viral properties” (University of Utah Research Foundation, priority 2007, dated 2013).

Assay: Dynamic light scattering particle size as a function of pH
Type: physicochemical
Settings: control
Method: Dynamic light scattering (Malvern Instrument) was used to determine the particle size of the virogels as a function of pH. […] Virogels were equilibrated at each pH for 1 hour before measurements were taken. As a control, the particle size of BSA was also measured as a function of pH.

bovine serum albumin [BSA]
difference in particle size with changes in pH: no significant difference in particle size
